For this data set, the system named is MDCK-MDR1 cells. Kind of data set: Membrane permeability of MDCK-MDR1 monolayer cells (blood-brain barrier permeability model). From the text: MDCK-MDR1 cells are monolayer cells with high expression of a P-gp transporter after MDR1 genes are transfected in MDCK (Madin-Darby canine kidney epithelial cells). Due to the compactness of the monolayer cells and high expression of a pharmaceutical efflux protein, the cells have a similarity to the structure of the blood-brain barrier (BBB), and can be used as one of the models for evaluating the BBB permeability. Because the compounds of the present invention targeted at the central nervous system and were needed to permeate the BBB, the MDCK-MDR1 cells were applied to research the membrane permeability, and the BBB permeability was preliminarily evaluated. […]
When 80% of the cells were fused, the cells were suspended with a complete culture medium, and inoculated into a Millicell plate according to 1×10^6-mL^−1. […] After cultured for 5 days, the cells were ready for transport experiment when the resistance achieves a platform (>2000 Ω·cm^2).
The solution in the lower pools was collected at 0, 30, 90 and 120 min and stored at −20° C. for later measurement. The permeation amount of the Rho-123 in the lower pools was detected by a fluorescence spectrophotometer, wherein the transmission wavelength was set to […] and the excitation wavelength was set to 530 nm. […]
The sample was detected by LC/MS. Concentration of each sample was quantified with a standard curve (50 nM-10000 nM).

This note sets out measurements from patent US9359314B2, “Thiazine amide derivative and pharmaceutical composition and use thereof” (Institute Of Pharmacology And Toxicology Academy Of …, priority 2012, dated 2016).

Regarding Rhodamine 123 [reference compound], the “Papp value of positive quality control compound versus literature” value (5 μmol·L^1 in HBSS, upper to lower pool) is “accorded with literature reports”. Also, the “Papp(×10^−6)” value (MDCK-MDR1 monolayer, direction not given) is listed as 4.89 ×10^−6.
